The test concerns the target human DNA polymerase-α (Homo sapiens, UniProt P09884). Put plainly: Primer/extension assay with human DNA polymerase-α (DNA template, DNA primer). Format: biochemical. An excerpt:
The antiviral activity of the phosphonate nucleosides of the invention may be mostly explained by their intracellular metabolisation into their diphosphates (hereinafter referred as pp) followed by incorporation into the viral genome and chain termination. We used a primer/extension assay in order to compare the ability of the HIV reverse transcriptase and the human DNA polymerase-α to accept PMDTApp (see FIG. 15) as a substrate in comparison to deoxy-adenosine triphosphate (hereinafter referred as dATP). This will provide us with suitable information about the selectivity of the anti-HIV compound of the invention since the human DNA polymerase-α is mainly involved in replication of the nuclear genome while the HIV reverse transcriptase plays a key role in the replication of the viral genome.
The following incorporation study was effected with a DNA template and a DNA primer, as DNA polymerase-α and reverse transcriptase are both able to synthesize double stranded DNA (although reverse transcriptase is also able to synthesize a DNA strand using RNA as template). Both enzymes were able to extend a DNA primer with the phosphonate nucleotide, but the modified nucleotide was only a very poor substrate for the human DNA polymerase α.

Amino acid sequences for entries named in this document (tags omitted).
UniProt P09884, whole entry: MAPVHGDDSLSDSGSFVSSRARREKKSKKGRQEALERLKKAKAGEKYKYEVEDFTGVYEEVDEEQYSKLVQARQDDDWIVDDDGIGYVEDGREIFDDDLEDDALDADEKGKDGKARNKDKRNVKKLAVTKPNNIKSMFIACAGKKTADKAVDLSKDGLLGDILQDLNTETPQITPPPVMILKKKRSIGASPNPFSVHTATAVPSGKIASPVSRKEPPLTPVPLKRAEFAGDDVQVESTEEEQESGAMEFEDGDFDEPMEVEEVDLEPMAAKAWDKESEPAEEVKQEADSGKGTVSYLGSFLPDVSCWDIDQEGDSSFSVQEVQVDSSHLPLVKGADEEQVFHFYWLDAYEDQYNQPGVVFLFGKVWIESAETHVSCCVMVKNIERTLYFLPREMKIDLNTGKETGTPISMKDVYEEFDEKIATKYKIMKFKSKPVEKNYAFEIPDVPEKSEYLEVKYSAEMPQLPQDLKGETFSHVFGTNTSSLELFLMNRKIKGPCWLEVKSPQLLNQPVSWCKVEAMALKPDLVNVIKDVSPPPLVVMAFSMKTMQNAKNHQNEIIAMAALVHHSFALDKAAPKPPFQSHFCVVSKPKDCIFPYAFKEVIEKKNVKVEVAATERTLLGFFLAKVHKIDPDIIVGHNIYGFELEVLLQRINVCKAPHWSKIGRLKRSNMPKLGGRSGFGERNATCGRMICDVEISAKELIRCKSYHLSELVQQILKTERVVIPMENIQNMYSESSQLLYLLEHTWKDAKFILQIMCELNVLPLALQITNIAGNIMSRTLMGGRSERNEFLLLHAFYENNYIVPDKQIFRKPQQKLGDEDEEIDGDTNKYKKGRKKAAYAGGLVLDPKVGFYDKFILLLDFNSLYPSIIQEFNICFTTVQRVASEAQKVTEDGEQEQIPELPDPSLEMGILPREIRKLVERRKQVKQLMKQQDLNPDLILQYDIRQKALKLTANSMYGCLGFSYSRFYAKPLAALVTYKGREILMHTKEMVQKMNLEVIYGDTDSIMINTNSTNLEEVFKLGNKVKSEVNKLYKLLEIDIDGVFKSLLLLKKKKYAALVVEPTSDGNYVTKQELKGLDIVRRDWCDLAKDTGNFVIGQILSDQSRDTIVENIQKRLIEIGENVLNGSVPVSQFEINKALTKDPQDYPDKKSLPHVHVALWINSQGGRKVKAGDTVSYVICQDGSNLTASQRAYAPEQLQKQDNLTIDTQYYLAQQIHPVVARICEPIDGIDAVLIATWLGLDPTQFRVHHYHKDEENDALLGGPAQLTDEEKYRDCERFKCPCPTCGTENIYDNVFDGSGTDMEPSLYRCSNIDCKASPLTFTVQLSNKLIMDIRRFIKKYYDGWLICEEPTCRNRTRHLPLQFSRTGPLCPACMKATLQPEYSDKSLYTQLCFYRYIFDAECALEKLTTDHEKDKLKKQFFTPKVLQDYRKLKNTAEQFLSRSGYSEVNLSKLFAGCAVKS

Molecules are shown by their SMILES.

For `Nc1ncnc2c1ncn2C1CC(OCP(=O)(O)OP(=O)(O)OP(=O)(O)O)CO1` (stereo not drawn), the “Substrate quality for human DNA polymerase α” value (extension of a DNA primer) is reported as “very poor substrate”. Under “human DNA polymerase α”, the “Enzyme concentration for incorporation relative to that used to incorporate natural dATP” value is reported as “more than 100 times” and the “Enzyme concentration resulting in incorporation” value is 0.4 U/μL.

These data come from US8076310B2, “Phosphonate nucleosides useful as active ingredients in pharmaceutical compositions for the treatment of viral infections, and intermediates for their production” (K.U.Leuven Research & Development, priority 2004, dated 2011).
